In patent US10099995B2 (Cole Research and Design, LLC, priority 2015, dated 2018):

Columns and labels:
[1] = Comparative solubility in pH 7.4 PBS buffer by HPLC; conditions: for Solubility: 4 mg/mL sample, filtered, HPLC
Procedure: Two 4 mg samples of each compound were weighed.
The first sample was used to determine solubility. The sample was mixed with 1 mL of pH 7.4 phosphate buffered saline (PBS) buffer solution to produce a 4 mg/mL solution. The solution was vortexed and filtered to remove undissolved particles. The filtered solution was then diluted in pH 7.4 buffer in triplicate and stored in a refrigerator to reduce hydrolysis. The solutions were allowed to sit at room temperature for 5 minutes and then were analyzed by HPLC.
The second sample was used to prepare a calibration curve in ethanol. Calibrators were made based on expected solubility. After visually inspecting solubility in the buffer, the calibration curve was determined in order to include points above and below the expected concentration. The calibrators were stored in a refrigerator until ready for analysis by HPLC.

[2] = hydrolysis observed during the solubility study; conditions: pH 7.4 buffer, during HPLC solubility analysis

Substance | Solubility [1] | Solubility ([1]; listed as resveratrol di-valinate) | solubility as compared to resveratrol [1] | hydrolysis [2]
resveratrol di-valinate | Not soluble | insoluble | – | –
resveratrol tri-valinate-hemisuccinate | 201 µg/mL | – | improved solubility | slightly hydrolyzed
